From PMC2749987 (2009) come the findings set out here.

The chains behind the UniProt entries cited, without tags or fusion partners. Residues count along the entry.
UniProt P28335, 33-458: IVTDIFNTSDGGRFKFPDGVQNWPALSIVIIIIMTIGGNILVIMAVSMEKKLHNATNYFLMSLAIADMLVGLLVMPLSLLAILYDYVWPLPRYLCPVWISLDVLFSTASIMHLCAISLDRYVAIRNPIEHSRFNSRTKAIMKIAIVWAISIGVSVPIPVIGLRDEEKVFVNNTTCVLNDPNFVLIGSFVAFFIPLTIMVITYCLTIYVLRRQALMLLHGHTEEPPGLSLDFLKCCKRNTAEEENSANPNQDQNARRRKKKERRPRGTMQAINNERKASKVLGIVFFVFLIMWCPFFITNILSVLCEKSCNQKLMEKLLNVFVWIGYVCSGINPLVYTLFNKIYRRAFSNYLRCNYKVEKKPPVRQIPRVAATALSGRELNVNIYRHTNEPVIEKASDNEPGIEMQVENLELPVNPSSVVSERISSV

The target of this assay is human 5-HT2C receptor (Homo sapiens, UniProt P28335). As to conditions: read-out: KD of radioligand at 5-HT2C receptors; saturation binding.

Regarding [^3H]-Mesulergine [reference compound], the Kd amounted to 0.88 ± 0.03 nM.
